Target: Sodium-dependent serotonin transporter (Rattus norvegicus, UniProt P31652)
Test: Ability to inhibit reuptake of serotonin ([3H]5-HT) at serotonin transporter of rat midbrian

Amino acid sequences for entries named in this document (tags omitted).
UniProt P31652, whole entry: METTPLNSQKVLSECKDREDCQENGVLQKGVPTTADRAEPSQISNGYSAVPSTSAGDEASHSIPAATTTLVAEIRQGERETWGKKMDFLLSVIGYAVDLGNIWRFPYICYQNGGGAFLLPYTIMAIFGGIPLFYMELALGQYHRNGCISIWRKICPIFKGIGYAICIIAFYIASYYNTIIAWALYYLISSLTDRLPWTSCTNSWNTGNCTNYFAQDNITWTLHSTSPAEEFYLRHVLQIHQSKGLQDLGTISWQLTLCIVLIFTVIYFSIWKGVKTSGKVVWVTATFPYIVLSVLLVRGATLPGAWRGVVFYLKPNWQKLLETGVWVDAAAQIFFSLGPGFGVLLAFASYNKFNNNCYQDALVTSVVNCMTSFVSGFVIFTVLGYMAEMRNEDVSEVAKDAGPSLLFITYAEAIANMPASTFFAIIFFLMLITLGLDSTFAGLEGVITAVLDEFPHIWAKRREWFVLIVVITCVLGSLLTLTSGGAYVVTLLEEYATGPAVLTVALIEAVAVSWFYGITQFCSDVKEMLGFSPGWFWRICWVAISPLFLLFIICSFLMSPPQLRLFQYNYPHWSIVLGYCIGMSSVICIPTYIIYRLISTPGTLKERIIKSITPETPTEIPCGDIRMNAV

Question: How did the Ki turn out when `CNCC[C@@H](Oc1ccccc1C)c1ccccc1` [ATOMOXETINE] was run?
Answer: Its Ki is 77 nM.

From ChEMBL document CHEMBL1136297, “Synthesis and pharmacological evaluation of (Z)-9-(heteroarylmethylene)-7-azatricyclo[4.3.1.0(3,7)]decanes: thiophene analogues as potent norepinephrine transporter inhibitors” (Bioorg Med Chem Lett, 2003)
